# Experimental data as given in patent publication US20080293647A1, “Combined Use Of Vitamin D Derivatives And Anti-Proliferative Agents For Treating Bladder Cancer” (priority 2004, published 2008).
# Tested on: human bladder cancer cell lines
# Test: Combination of calcitriol with chemotherapeutic agents, bladder cancer cell line proliferation, combination index method
# Type: cell-based
# Details: agent combined with calcitriol; combination index method (CalcuSyn)
# Method: The following bladder cancer cell lines were used: […] Proliferation was measured after an additional 96 h using CyQuant cell proliferation assay kit. Drug interactions (as shown in FIG. 1) were evaluated by the median-effect/isobologram method using CalcuSyn software (Biosoft, Cambridge, UK). Combination Indices (CI) were calculated using the non-constant ratio combination design, determining synergism or antagonism for each data point. […] Recommended symbols are used for describing synergism or antagonism in drug combination studies analyzed with the combination index method (according to Chou. and Talalay, Adv. Enzyme Regul. 22 (1984) 27-55): […]
substance,measurement,value
mitomycin-c,Synergism or antagonism on bladder cancer cell proliferation in combination with calcitriol,does not result in any additive or synergistic effect
